The text below walks through data of PubChem BioAssay AID652025 (National Center for Advancing Translational Sciences (NCATS), 2013).

The entries are a selection whose mix differs from that of the whole data set. The source made the active and inactive calls. No stated cut-off is given here; in the data, active means activation above about 50%; inconclusive means mostly about 30% to 49%; inactive means weaker than that.

This experiment in a line: qHTS of IL-2 Activators. Further: 0% is about no effect. To be noted: IL-2 activation reporter assay, cell-based qHTS; stronger effect = higher value; in transgenic mouse T cells; stimulated with anti-CD3/CD4/CD28 beads. The text has this:
The adaptive immune response against any infectious agent begins with the activation of an antigen specific T cell. This relatively rare and inert ("naive") T cell undergoes a massive proliferative expansion and differentiation process to generate sufficient number of potent pathogen-specific effector T cells. The effector T cells fight the infection by making cytokines and helping other cells to become fully armed as well. If any naive T cell has antigen receptors (TCRs) that can be activated by self peptides, then a variety of regulatory mechanisms kick in to prevent this cell from performing to its full potential. These processes collectively constitute the phenomenon of immunological tolerance and their failure leads to autoimmunity. One arm of tolerance involves generation of biochemical negative feedback downstream of the TCR (tuning). This is especially relevant to self antigens present in the body over long periods of time (chronic), which form the bulk of our proteome. The negative feedback serves to tune the TCR signaling, such that the ambient antigenic stimulation is nullified intracellularly. Unfortunately, this critical machinery serves as a target for chronic viral, bacterial and parasitic infections (as well as tumors), which can evade a robust immune response, simply by allowing T cells to tune down their signaling to pathogen or malignancy derived antigens. As such, disrupting the tuning in such cases would allow the tolerant T cell to function again and deliver a robust effector response.
If a therapeutic can restore responsiveness to the tuned down T cell, even for a short time, they could combat the pathogen without any additional immunization. To that end, we have developed a sensitive HTS T cell based assay based on IL-2. This assay will be screened against the Molecular Libraries Small Molecule Repository (MLSMR) to find small molecules that could elicit this response.
NIH Chemical Genomics Center [NCGC]
NIH Molecular Libraries Probe Centers Network [MLPCN]
Assay Submitter (PI): Ron Schwartz, NIAID
4 microL (750 cells/well) of unstimulated transgenic mouse T cells (columns 1-3,5-48) are dispensed into Aurora LoBase, black clear-bottom 1536-well assay plates; column 4 receives an identical concentration of transgenic memory T cells as a non-tolerant control. Compounds are then transferred via Kalypsys pin tool equipped with 1536-pin array (10 nL slotted pins, V&P Scientific, San Diego, CA). Following addition of compound and a 60 minute incubation, 1 microL of bead stimulation solution ((0.04 micron Fluospheres (Life technologies, CA) coated with 10ug/ml each anti-CD3 and anti-CD4 (clones 2C11 and GK1.5, BD Biosciences, CA) and mixed with 1ug/ml anti-CD28 (clone PV-1, BD biosciences, CA)). columns 2-48) is added to stimulate the IL-2 response pathway; media is instead added to column 1 as an unstimulated control, while PMA/ionomycin (Sigma Aldrich, MO) is added to column 3 as a control for IL-2 tolerance bypass. The plates are then incubated at 37 degrees C for 18 hours. EGFP and DsRed signal are then detected using an Acumen eX3 Explorer fluorescent plate cytometer. All cells are dispensed in cell media containing EHAA (Quality Biologicals, MD), RPMI (Quality Biologicals, MD), Glutamine (Life Technologies, CA), Penicillin/Streptomycin (Quality Biologicals, MD), 2-ME (Sigma Aldrich, MO) and 10% FBS (Gemini Bioproducts, CA) .
(In general: In qHTS, concentration-response curves come from the screen itself.)
`CC1=NCCc2c1[nH]c1ccccc21.O=[N+]([O-])c1cc([N+](=O)[O-])c(O)c([N+](=O)[O-])c1`: the activation is inactive: 0.0829%.
Regarding `Cc1ccc(C)c(NP(C)(=O)Oc2ccccc2)c1` (stereo not given), the activation is inactive: -2.65%.
On to `CP(=O)(Nc1cccc(Br)c1)Oc1ccccc1` (stereo not given), for which the activation was inactive: -0.866%.
Next, `Cc1cc(C)cc(OP(C)(=O)Nc2ccccn2)c1` (stereo not given): inactive: -0.444%; `CCOC(=O)c1ccc(NP(C)(=O)Oc2cc(C)cc(C)c2)cc1` (stereo not given): inactive: -0.365%; `Cc1cc(C)cc(OP(C)(=O)Nc2ccc(C)cc2C)c1` (stereo not given): inactive: -2.48%.
For `COc1ccccc1OP(C)(=O)Nc1cccc(Br)c1` (stereo not given), the activation is inactive: -0.331%.
For the compound `Cc1nc2ccc3ccccc3c2s1.O=[N+]([O-])c1cc([N+](=O)[O-])c(O)c([N+](=O)[O-])c1`, the activation was inactive: -0.75%.
For the compound `O=[N+]([O-])c1cc([N+](=O)[O-])c(-c2cnn(-c3ccccc3)c2)c([N+](=O)[O-])c1`, the activation is inactive: 8.43%.
For the compound `CN(Cc1cccnc1)C(=O)COc1ccc(Cl)c(Cl)c1.O=[N+]([O-])c1cc([N+](=O)[O-])c(O)c([N+](=O)[O-])c1`, the activation was inactive: 0.313%.
Take `O=[N+]([O-])c1cc([N+](=O)[O-])c(-n2nnc3ccccc32)c([N+](=O)[O-])c1`: the activation was inactive: -0.0544%.
For `COc1ccc(-c2ccccn2)cc1.O=[N+]([O-])c1cc([N+](=O)[O-])c(O)c([N+](=O)[O-])c1`, the activation is inactive: -0.366%.
As to `CP(=O)(Nc1ccc(SC(F)(F)F)cc1)Oc1ccccc1` (stereo not given), the activation is inactive: -5.49%.
Consider `CCCOc1ccc(NP(C)(=O)Oc2ccc(Cl)cc2)cc1` (stereo not given), for which the activation is inactive: -0.933%.
`CN1CCCCC1COC(=O)C1(O)c2ccccc2CCc2ccccc21` (stereo not given): the activation is inactive: 0.712%.
`COc1ccccc1OP(C)(=O)Nc1c(C)cccc1C` (stereo not given): the activation is inactive: -2.99%.
Turning to `O=[N+]([O-])c1cc([N+](=O)[O-])c(Nc2nnnn2CCO)c([N+](=O)[O-])c1`, the activation was inactive: -3.37%.
Take `CC1=C2N=C(C=C3N=C(C(C)=C4[N-][C@@](C)([C@@H]5N=C1[C@](C)(CCC(=O)NC[C@@H](C)OP(=O)([O-])O[C@H]1[C@@H](O)[C@@H](n6cnc7cc(C)c(C)cc76)O[C@@H]1CO)[C@H]5CC(N)=O)[C@@](C)(CC(N)=O)[C@@H]4CCC(N)=O)[C@@](C)(CC(N)=O)[C@@H]3CCC(N)=O)C(C)(C)[C@@H]2CCC(N)=O.[C-]#N.[Co+3]`: the activation was inactive: 0.069%.
Next, `CP(=O)(Nc1ccccc1Br)Oc1ccccc1` (stereo not given): inactive: 0.433%; `COc1ccccc1OP(C)(=O)Nc1ccccc1` (stereo not given): inactive: -0.0939%; `CP(=S)(Nn1cnnc1)Oc1ccccc1` (stereo not given): inactive: 0.716%.
In the case of `CP(=O)(Nc1ccccn1)Oc1ccc(Cl)cc1` (stereo not given), the activation is inactive: 0.721%.
`O=[N+]([O-])c1cc([N+](=O)[O-])c(O)c([N+](=O)[O-])c1.c1ccc(Oc2ccncc2)cc1`: the activation was inactive: -1.46%.
In the case of `CCOC(=O)c1ccc(NP(C)(=O)Oc2ccc(OC)cc2)cc1` (stereo not given), the activation was inactive: -0.115%.
As for `CCOP(C)(=S)SCC(=O)NC(C)C(=O)O` (stereo not given), the activation was inactive: -2.23%.
As to `Cc1cc(C)cc(OP(C)(=O)Nc2ccc(SC(F)(F)F)cc2)c1` (stereo not given), the activation is inactive: -4.9%.
Regarding `CCc1ccc(OP(C)(=O)N2CCN(c3ccc([N+](=O)[O-])cc3)CC2)cc1` (stereo not given), the activation was inactive: -0.47%.
For the compound `CP(=O)(NC(=O)Nc1ccccc1)Oc1ccccc1` (stereo not given), the activation was inactive: -1.91%.
In the case of `CP(=O)(Oc1ccccc1)OC(c1ccccc1)C(F)(F)F` (stereo not given), the activation was inactive: 0.319%.
Consider `CP(=O)(Nc1ccc(SC(F)(F)F)cc1)Oc1ccc(Cl)cc1` (stereo not given), for which the activation was inactive: -0.428%.
For `Cc1cccc(C)c1OP(C)(=O)Nc1ccc(SC(F)(F)F)cc1` (stereo not given), the activation was inactive: 0.038%.
`COc1ccccc1-c1ccccn1.O=[N+]([O-])c1cc([N+](=O)[O-])c(O)c([N+](=O)[O-])c1`: the activation was inactive: -0.684%.
As for `CCN(CC)CCCOC(=O)C(O)(c1ccccc1)c1ccccc1`, the activation was inactive: 0.923%.
For `Cc1cc(C)cc(OP(C)(N)=O)c1` (stereo not given), the activation was inactive: 0.154%.
In the case of `COc1ccc(OP(C)(=O)Nc2cccc(F)c2)cc1` (stereo not given), the activation was inactive: -1.83%.
Next, `COc1ccccc1OP(C)(=O)Nc1cc(Cl)ccc1C` (stereo not given): inactive: -0.838%.
As to `Cc1ccc(NP(C)(=O)Oc2ccccc2)c(C)c1` (stereo not given), the activation is inactive: -2.14%.
In the case of `COc1ccccc1OP(C)(=O)Nc1ccc(C)cc1` (stereo not given), the activation was inactive: 0.81%.
Take `CCOC(=O)c1ccc(NP(C)(=O)Oc2ccccc2)cc1` (stereo not given): the activation was inactive: 0.921%.
In the case of `O=[N+]([O-])c1ccc2c(c1)C=Nc1ccccc1O2`, the activation is inactive: -3.5%.
For `Cc1cccc(C)c1OP(C)(N)=O` (stereo not given), the activation was inactive: -1.06%.
With `CC(C)(C)c1ccc(OP(C)(=O)Nc2ccc(SC(F)(F)F)cc2)cc1` (stereo not given), the activation is inactive: -0.662%.
To `O=[N+]([O-])c1cc([N+](=O)[O-])c(Nc2cccnc2)c([N+](=O)[O-])c1` belongs inactive: -0.465%; to `CP(=O)(OCCOc1ccccc1)OCCOc1ccccc1`, inactive: -0.314%; to `CP(=O)(Nc1ccc(Cl)cc1Cl)Oc1ccccc1` (stereo not given), inactive: -1.49%.
